Data reported in paper PMC3651692 (Bioorganic & medicinal chemistry letters, 2013).

Sequences of proteins named here, by UniProt entry; tags and fusion partners are left off. A change or cut given only in a name is not applied to a line headed by its entry.
UniProt P41145: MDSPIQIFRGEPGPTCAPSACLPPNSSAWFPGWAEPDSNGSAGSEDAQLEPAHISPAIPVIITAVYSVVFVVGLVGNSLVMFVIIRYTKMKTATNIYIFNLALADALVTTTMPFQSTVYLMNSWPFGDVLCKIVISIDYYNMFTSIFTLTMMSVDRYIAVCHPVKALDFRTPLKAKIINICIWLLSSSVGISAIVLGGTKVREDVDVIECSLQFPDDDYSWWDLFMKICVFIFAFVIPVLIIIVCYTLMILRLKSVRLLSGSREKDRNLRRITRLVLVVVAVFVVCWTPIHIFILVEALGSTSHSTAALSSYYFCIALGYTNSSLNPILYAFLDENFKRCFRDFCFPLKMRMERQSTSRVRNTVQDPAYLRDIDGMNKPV
UniProt P35372, whole entry, species assumed: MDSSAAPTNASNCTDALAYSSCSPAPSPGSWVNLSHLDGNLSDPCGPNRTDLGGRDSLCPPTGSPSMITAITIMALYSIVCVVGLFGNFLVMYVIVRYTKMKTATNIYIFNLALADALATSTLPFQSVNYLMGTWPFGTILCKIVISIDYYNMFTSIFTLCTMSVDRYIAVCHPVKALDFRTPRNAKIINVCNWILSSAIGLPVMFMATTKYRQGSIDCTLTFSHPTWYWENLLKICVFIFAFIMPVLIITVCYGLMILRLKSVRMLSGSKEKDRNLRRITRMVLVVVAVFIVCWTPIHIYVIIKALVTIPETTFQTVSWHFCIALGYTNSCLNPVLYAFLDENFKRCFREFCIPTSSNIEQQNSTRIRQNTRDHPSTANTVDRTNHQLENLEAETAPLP

Experiments:
[1] = molecular target: κ-opioid receptor (KOR) (Homo sapiens, UniProt P41145); type: binding
[2] = molecular target: μ-opioid receptor (MOR) (Homo sapiens, UniProt P35372); type: binding; conditions: read-out: Affinities Ki± SD MOR

SMILES | Selectivity DOR/KOR [1] | Selectivity MOR/KOR [1] | Ki [2] [µM]
COC(=O)[C@@H]1C[C@H](OC(=O)CCC(=O)O)C(=O)[C@H]2[C@@]1(C)CC[C@H]1C(=O)O[C@H](c3ccoc3)C[C@]21C [Compound 11] | >2 | >2 | 
COC(=O)[C@@H]1C[C@H](OC(C)=O)C(=O)[C@H]2[C@@]1(C)CC[C@H]1C(=O)O[C@H](c3ccoc3)C[C@]21C [Compound 1, salvinorin A, reference compound] |  |  | > 10
